High-throughput results (PubChem BioAssay)
Rows were chosen to be rich in hits. Some 2.8% of all compounds tested hit in one or more screens of this group.
UUG fidelity – yeast start codon fidelity modulation | S. cerevisiae UUG-firefly luciferase reporter, luminescence/redox ratio | activity score, % at 18.7 µM | 350,000 tested, 0.13% active;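 active = replicate mean at a twofold rise or more, about +100% in these data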;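 also: firefly luciferase made from a UUG start codon reports start codon fidelity; reporter light over untreated wells divided by growth signal over untreated wells; some hits fall short of that in this replicate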
miR-122 sensor – blocks miR-122 activity in Huh7 sensor cells. Huh7 miR-122 Renilla luciferase sensor, 48 h; neutral wells = 0, positive control = 100. activation (reporter increase), % at 12.5 µM. 340,000 compounds, 0.3% hits. AID 602342;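 active means mean replicate activation score at least 90 and every replicate individually at or above 90; inconclusive means only one of the two criteria met; inactive means neither criterion met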;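 further: higher luciferase means less miR-122 activity so hits act as miR-122 inhibitors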
MITF TRPM1 HTS – activators of MITF-driven TRPM1 promoter activity in SK-MEL-5 cells. 300,000 compounds, 0.75% hits. activation, % at 12.5 µM. SK-MEL-5 TRPM1-promoter luciferase, 24 h; % of positive control, neutral wells = 0;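 active means mean activation of at least 80% with every replicate also reaching 80%; inconclusive means mean reaches 80% but some replicate falls short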;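 further: 0% = neutral control wells and 100% = parthenolide positive control wells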
Wnt bcat act – activators of Wnt/beta-catenin signaling | Wnt/beta-catenin reporter cell assay, activator, plate reader | AID 743398 | activation, % at 9.35 µM | 300,000 compounds, 1.2% hits; in the data active means activation above about 30%, passing the limit was not always enough; inconclusive means no clear call, values can overlap the other calls;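 further: 0% = neutral control wells and 100% = positive control wells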
PglD inh – PglD (C. jejuni) enzyme inhibition. purified PglD enzyme, DTNB colorimetric CoA detection. inhibition, % at 12.5 µM. 360,000 compounds, 0.098% hits; in the data active means inhibition above about 16%, passing the limit was not always enough; inconclusive means no clear call, values can overlap the other calls
esBAF inh – inhibitors of esBAF chromatin remodeling in mouse ES cells; Bmi1-luciferase knock-in reporter, 24 h; 100% = twice the neutral-well signal; reporter increase, % at 12.5 µM; 350,000 compounds, 2% hits; in the data active means activation above about 40%; inconclusive means no clear call, values can overlap the other calls;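 further: 0% = median of the plate's neutral control wells and 100% = double that signal; a rise in the Bmi1 reporter signal indicates esBAF inhibition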
* = called active by the depositor; ? = inconclusive; · = no result; [ ] = another dose, or the depositor's remark.

cpd	SMILES	UUG fidelity	miR-122 sensor	MITF TRPM1 HTS
1	Oc1ccccc1CNc1ccc2c(c1)OCCO2	-31	-2	26
2	CO[C@H]1CN(C)C(=O)c2cc(NC(=O)NC3CCCCC3)ccc2OC[C@H](C)N(CC2CC2)C[C@H]1C	-3	-7[16.7 µM]	·
3	C/C=C/c1ccc2c(c1)O[C@H](CN(C)C(C)=O)[C@@H](C)CN([C@H](C)CO)S2(=O)=O	7	3[16.7 µM]	·
4	Cc1ccc(CNc2cccnc2)cc1	-15	-4	47
5	O=C(Nc1nnc(-c2ccccc2)s1)c1ccccc1F	-11	1	·
6	O=C(Nc1nnc(S(=O)(=O)Cc2ccc(F)cc2)s1)c1ccccc1F	-9	7	-11
7	O=C(Nc1nnc(Cc2ccccc2F)s1)c1ccccc1Cl	-23	17	·
8	O=C(Nc1nnc(-c2ccccc2Cl)s1)c1ccccc1F	-1	-2	78
9	CCCN1C[C@H](C)[C@@H](OC)CN(C)C(=O)c2cc(NC(=O)c3cccc(F)c3)ccc2OC[C@@H]1C	23	4[16.7 µM]	·
10	C[C@H]1CN([C@@H](C)CO)C(=O)Cc2cc(NS(=O)(=O)c3cccs3)ccc2O[C@H]1CN(C)Cc1ccc(Cl)c(Cl)c1	1	-8[16.7 µM]	·

cpd	Wnt bcat act	PglD inh	esBAF inh
1	7	-1	-41
2	·	-3	2
3	·	0	5
4	0	8	58*
5	24	3	70*
6	-2	1	3
7	1	-4	2
8	27	-4	51*
9	·	3	10
10	·	3	7

Additional structures follow.
cpd	SMILES	UUG fidelity	miR-122 sensor	MITF TRPM1 HTS
11	COc1ccccc1OCC(=O)N/N=C/C=C/c1ccc([N+](=O)[O-])o1	18	13	-75
12	Cc1ccccc1OCC(=O)N/N=C/c1ccc([N+](=O)[O-])o1	·	·	-77
13	COc1ccc(OCCN2C(=O)c3cccc(N)c3C2=O)cc1	3	0	88*
14	O=C1c2ccccc2C(=O)N1CCOc1cccc(Br)c1	-10	-2	19
15	Cc1cc(C)c(NN=c2c(=O)c3ccccc3c2=O)c(C)c1	6	-2	116*
16	O=C(C[C@H]1CC[C@@H]2[C@H](COC[C@@H](O)CN2Cc2ccccc2F)O1)N1CCc2ccccc2C1	5	-9[16.7 µM]	·
17	C[C@@H]1CN([C@@H](C)CO)C(=O)c2cc(N(C)C)ccc2O[C@@H]1CN(C)Cc1ccc(C(=O)O)cc1	8	-2[16.7 µM]	·
18	CCOC(=O)c1c(C)nc(-c2ccccc2)nc1N	-6	11	·
19	CCOC(=O)c1c(C)nc(C)c(C(=O)OCC)c1-c1ccccc1	·	-4	1
20	CCOC(=O)c1c(-c2ccccc2)cn2c(C)cc(C)nc12	-7	-5	67

cpd	Wnt bcat act	PglD inh	esBAF inh
11	69*	-6	·
12	2	·	·
13	2	5	38
14	14	4	41*
15	21	1	30
16	·	-1	-3
17	·	-2	2
18	·	-8	50*
19	-2	·	·
20	23	0	63*

Reprinted from the part before: 3 entries, followed by the next part.
cpd	SMILES	UUG fidelity	miR-122 sensor	MITF TRPM1 HTS
18	CCOC(=O)c1c(C)nc(-c2ccccc2)nc1N	-6	11	·
19	CCOC(=O)c1c(C)nc(C)c(C(=O)OCC)c1-c1ccccc1	·	-4	1
20	CCOC(=O)c1c(-c2ccccc2)cn2c(C)cc(C)nc12	-7	-5	67
21	CCC(=O)N1CCCCN2[C@H](C1)[C@H](c1ccc(-c3cccc(C(=O)N(C)C)c3)cc1)[C@@H]2CO	0	-1[16.7 µM]	·
22	O=c1[nH]c2ccccc2cc1-c1nnn(-c2ccccc2)n1	-15	·	-9
23	Brc1ccccc1-n1nnc(-c2nccs2)n1	-28	3	91*
24	c1ccc(-n2nnc(-c3nccs3)n2)cc1	-25	4	?
25	C[C@H](CO)N1C[C@H](C)[C@@H](CN(C)C(=O)Nc2ccc(F)cc2)Oc2ccc(NS(=O)(=O)c3cn(C)cn3)cc2C1=O	·	-1[16.7 µM]	·
26	O=C(O)C[C@H]1CC[C@H](NC(=O)Nc2cc(F)ccc2F)[C@@H](CO)O1	-16	·	·
27	Cc1ccccc1NC(=O)c1ccc(NS(=O)(=O)c2cc(C(C)(C)C)cc(C)c2C)cc1	-9	321*	5
28	Cc1cc(C(C)(C)C)cc(S(=O)(=O)Nc2cccc(C(=O)O)c2)c1C	-14	29	-6
29	O=C1NC(c2ccc(Br)cc2)=N/C1=C/c1ccco1	-9	-2	97*
30	S=c1[nH]nc(-c2ccccc2Cl)n1/N=C/C=C/c1ccco1	-16	4	·
31	O=C1NC(c2ccccc2Cl)=N/C1=C/c1ccco1	·	·	67
32	CO[C@H]1CN(C)C(=O)c2cc(NC(=O)C3CC3)ccc2OC[C@@H](C)N(C(=O)C2CCOCC2)C[C@@H]1C	·	·	·
33	c1ccc(Cc2cc(-c3ccccc3)on2)cc1	1	-11	·

cpd	Wnt bcat act	PglD inh	esBAF inh
18	·	-8	50*
19	-2	·	·
20	23	0	63*
21	·	3	·
22	-4	2	5
23	45*	5	?
24	40*	1	1
25	·	·	-11
26	·	1	-4
27	-1	-10	·
28	1	2	-9
29	·	-5	·
30	-1	-4	·
31	53*	·	·
32	·	0	-5
33	·	-1	66*
